ChEMBL document CHEMBL1133088 (J Med Chem, 2000)

What was measured:
[1] = Inhibition against MDA-MB-435 S human breast cancer cells in the presence of 30 mg/mL HSA; assay type: functional, cell-based
[2] = % lactone at different intervals of time in PBS with HSA suspension; assay type: ADME; conditions: human, buffer
In short: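 Lactone-ring hydrolysis of 1 uM drug at 37 °C and pH 7.4, incubated in PBS, in PBS containing physiologically relevant HSA or albumin-free red blood cells, or in whole human blood. Isocratic acetonitrile/2% triethylamine acetate (pH 5.5) at 1 mL/min; lactone eluted near 7.0 min, carboxylate near 2.0 min.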

[3] = Inhibition against MDA-MB-435 S human breast cancer cells in the absence of albumin; assay type: functional, cell-based
In short: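 MDA-MB-435 S human breast cancer cells were grown without HSA for a 3-day growth assay with drug. Read-out was sulforhodamine B, which stains protein in cells and cell fragments still attached to the dish bottom, including dying or dead attached cells. IC50 was derived from the cell survival profiles.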

## CCc1c2c(nc3ccc(O)cc13)-c1cc3c(c(=O)n1C2)COC(=O)[C@]3(O)CC [7-ETHYL-10-HYDROXYCAMPTOTHECIN]
[1]
  IC50: 50 nM
[2]
  Lactone: 6%
[3]
  IC50: 5 nM
